Laboratory results: PubChem BioAssay (NCI)
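Five compound concentrations were applied to cells in 96-well plates for 48 hours; endpoints were derived by simple linear interpolation of the resulting dose-response curve. GI50: concentration for 50% inhibition of growth. TGI: concentration producing complete growth inhibition.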

How the values were obtained:
Experiment in all cases: inhibition of tumour cell growth, NCI panel, 48 h
UO-31 renal = tested on: UO-31 renal
SF-539 CNS = tested on: SF-539 CNS
DMS 273 small cell lung = tested on: DMS 273 small cell lung
SNB-75 CNS = tested on: SNB-75 CNS
HL-60(TB) leukemia = tested on: HL-60(TB) leukemia
KM12 colon = tested on: KM12 colon
SK-MEL-5 melanoma = tested on: SK-MEL-5 melanoma
HCC-2998 colon = tested on: HCC-2998 colon
RPMI-8226 leukemia = tested on: RPMI-8226 leukemia
786-0 renal = tested on: 786-0 renal
SW-620 colon = tested on: SW-620 colon
DMS 114 small cell lung = tested on: DMS 114 small cell lung
NCI-H522 lung = tested on: NCI-H522 lung
SNB-19 CNS = tested on: SNB-19 CNS
U251 CNS = tested on: U251 CNS
HCT-15 colon = tested on: HCT-15 colon
SN12C renal = tested on: SN12C renal
K-562 leukemia = tested on: K-562 leukemia
UACC-62 melanoma = tested on: UACC-62 melanoma
KM20L2 colon = tested on: KM20L2 colon
IGROV1 ovarian = tested on: IGROV1 ovarian
UACC-257 melanoma = tested on: UACC-257 melanoma
OVCAR-4 ovarian = tested on: OVCAR-4 ovarian
M14 melanoma = tested on: M14 melanoma
OVCAR-8 ovarian = tested on: OVCAR-8 ovarian
MALME-3M melanoma = tested on: MALME-3M melanoma
TK-10 renal = tested on: TK-10 renal
OVCAR-3 ovarian = tested on: OVCAR-3 ovarian
CCRF-CEM leukemia = tested on: CCRF-CEM leukemia
NCI-H322M lung = tested on: NCI-H322M lung
OVCAR-5 ovarian = tested on: OVCAR-5 ovarian
SK-MEL-28 melanoma = tested on: SK-MEL-28 melanoma
SK-MEL-2 melanoma = tested on: SK-MEL-2 melanoma
HCT-116 colon = tested on: HCT-116 colon
DLD-1 colon = tested on: DLD-1 colon
NCI-H23 lung = tested on: NCI-H23 lung
LOX IMVI melanoma = tested on: LOX IMVI melanoma
HOP-62 NSCLC = tested on: HOP-62 NSCLC
HOP-92 NSCLC = tested on: HOP-92 NSCLC
SF-295 CNS = tested on: SF-295 CNS
M19-MEL melanoma = tested on: M19-MEL melanoma
HT29 colon = tested on: HT29 colon
RXF 393 renal = tested on: RXF 393 renal
SNB-78 CNS = tested on: SNB-78 CNS
SF-268 CNS = tested on: SF-268 CNS
CAKI-1 renal = tested on: CAKI-1 renal
A498 renal = tested on: A498 renal
EKVX NSCLC = tested on: EKVX NSCLC
SK-OV-3 ovarian = tested on: SK-OV-3 ovarian
MOLT-4 leukemia = tested on: MOLT-4 leukemia
NCI-H460 lung = tested on: NCI-H460 lung
A549 NSCLC = tested on: A549 NSCLC
NCI-H226 lung = tested on: NCI-H226 lung
ACHN renal = tested on: ACHN renal
NCI/ADR-RES ovarian = tested on: NCI/ADR-RES ovarian
HOP-18 NSCLC = tested on: HOP-18 NSCLC

Which results are given for `C=C(C(=C)S(=O)(=O)c1ccc([N+](=O)[O-])cc1[N+](=O)[O-])S(=O)(=O)c1ccc([N+](=O)[O-])cc1[N+](=O)[O-]`?
GI50 (UO-31 renal): 17.9 µM; TGI (UO-31 renal): 32.3 µM; GI50 (SF-539 CNS): 7.33 µM; TGI (SF-539 CNS): 43.2 µM; GI50 (DMS 273 small cell lung): 17.4 µM; TGI (DMS 273 small cell lung): 52.4 µM; GI50 (SNB-75 CNS): 14.2 µM; TGI (SNB-75 CNS): 49.4 µM; GI50 (HL-60(TB) leukemia): 2.98 µM; TGI (HL-60(TB) leukemia): 10.5 µM; GI50 (KM12 colon): 13.5 µM; TGI (KM12 colon): 30.2 µM; GI50 (SK-MEL-5 melanoma): 16.2 µM; TGI (SK-MEL-5 melanoma): 33 µM; GI50 (HCC-2998 colon): 20.1 µM; TGI (HCC-2998 colon): 38.9 µM; GI50 (RPMI-8226 leukemia): 3.42 µM; TGI (RPMI-8226 leukemia): 27.1 µM; GI50 (786-0 renal): 18.6 µM; TGI (786-0 renal): 40 µM; GI50 (SW-620 colon): 6.49 µM; TGI (SW-620 colon): 32.5 µM; GI50 (DMS 114 small cell lung): 15.3 µM; TGI (DMS 114 small cell lung): 43.4 µM; GI50 (NCI-H522 lung): 3.05 µM; TGI (NCI-H522 lung): 9.76 µM; GI50 (SNB-19 CNS): 21.1 µM; TGI (SNB-19 CNS): 48.9 µM; GI50 (U251 CNS): 14.6 µM; TGI (U251 CNS): 30.4 µM; GI50 (HCT-15 colon): 2.99 µM; TGI (HCT-15 colon): 16.3 µM; GI50 (SN12C renal): 15.9 µM; TGI (SN12C renal): 46.8 µM; GI50 (K-562 leukemia): 3.19 µM; TGI (K-562 leukemia): 15.4 µM; GI50 (UACC-62 melanoma): 12.3 µM; TGI (UACC-62 melanoma): 35 µM; GI50 (KM20L2 colon): 16.9 µM; TGI (KM20L2 colon): 56.8 µM; GI50 (IGROV1 ovarian): 21.3 µM; TGI (IGROV1 ovarian): 45.3 µM; GI50 (UACC-257 melanoma): 10.4 µM; TGI (UACC-257 melanoma): 26 µM; GI50 (OVCAR-4 ovarian): 15.2 µM; TGI (OVCAR-4 ovarian): 52.5 µM; GI50 (M14 melanoma): 11.9 µM; TGI (M14 melanoma): 29.2 µM; GI50 (OVCAR-8 ovarian): 3.32 µM; TGI (OVCAR-8 ovarian): 32.5 µM; GI50 (MALME-3M melanoma): 17 µM; TGI (MALME-3M melanoma): 57.1 µM; GI50 (TK-10 renal): 18.2 µM; TGI (TK-10 renal): 33.3 µM; GI50 (OVCAR-3 ovarian): 5.48 µM; TGI (OVCAR-3 ovarian): 55.5 µM; GI50 (CCRF-CEM leukemia): 1.54 µM; TGI (CCRF-CEM leukemia): 6 µM; GI50 (NCI-H322M lung): 23.2 µM; TGI (NCI-H322M lung): 57.2 µM; GI50 (OVCAR-5 ovarian): 19.8 µM; TGI (OVCAR-5 ovarian): 35.3 µM; GI50 (SK-MEL-28 melanoma): 16.1 µM; TGI (SK-MEL-28 melanoma): 56.5 µM; GI50 (SK-MEL-2 melanoma): 20.7 µM; TGI (SK-MEL-2 melanoma): 66.7 µM; GI50 (HCT-116 colon): 11.8 µM; TGI (HCT-116 colon): 39 µM; GI50 (DLD-1 colon): 8.82 µM; TGI (DLD-1 colon): 66 µM; GI50 (NCI-H23 lung): 17.1 µM; TGI (NCI-H23 lung): 54.8 µM; GI50 (LOX IMVI melanoma): 3.27 µM; TGI (LOX IMVI melanoma): 23.4 µM; GI50 (HOP-62 NSCLC): 25.7 µM; TGI (HOP-62 NSCLC): 49.1 µM; GI50 (HOP-92 NSCLC): 17.3 µM; TGI (HOP-92 NSCLC): 35.9 µM; GI50 (SF-295 CNS): 15 µM; TGI (SF-295 CNS): 34.3 µM; GI50 (M19-MEL melanoma): 12.5 µM; TGI (M19-MEL melanoma): 51.2 µM; GI50 (HT29 colon): 9.5 µM; TGI (HT29 colon): 36.8 µM; GI50 (RXF 393 renal): 2.41 µM; TGI (RXF 393 renal): 8.65 µM; GI50 (SNB-78 CNS): 19.1 µM; TGI (SNB-78 CNS): 72.9 µM; GI50 (SF-268 CNS): 13.3 µM; TGI (SF-268 CNS): 49 µM; GI50 (CAKI-1 renal): 14.5 µM; TGI (CAKI-1 renal): 33.7 µM; GI50 (A498 renal): 17.8 µM; TGI (A498 renal): 34.3 µM; GI50 (EKVX NSCLC): 29.3 µM; TGI (EKVX NSCLC): 63.2 µM; GI50 (SK-OV-3 ovarian): 24.8 µM; TGI (SK-OV-3 ovarian): 40.3 µM; GI50 (MOLT-4 leukemia): 5.19 µM; TGI (MOLT-4 leukemia): 26.9 µM; GI50 (NCI-H460 lung): 18.3 µM; TGI (NCI-H460 lung): 46.9 µM; GI50 (A549 NSCLC): 21 µM; TGI (A549 NSCLC): 49.8 µM; GI50 (NCI-H226 lung): 23.6 µM; TGI (NCI-H226 lung): 56.1 µM; GI50 (ACHN renal): 12.7 µM; TGI (ACHN renal): 25.9 µM

`CC1CCOC(=O)/C=C/C=C/C(=O)OC2CC3OC4C5OC5(C)C(O)CC4(COC(=O)C1O)C2(C)C31CO1` (stereo unspecified) was tested. Which GI50 (UO-31 renal) did it give?
The GI50 was 0.522 µM.

And the GI50 (SN12C renal)?
The GI50 was 0.559 µM.

And the GI50 (NCI/ADR-RES ovarian)?
Its GI50 is 1.48 µM.

What about the GI50 (NCI-H322M lung) of the same compound?
Its GI50 is 0.497 µM.

And the GI50 (OVCAR-5 ovarian)?
The GI50 was 0.531 µM.

And the GI50 (HOP-18 NSCLC)?
The GI50 was 0.92 µM.

And the GI50 (SK-OV-3 ovarian)?
Its GI50 is 0.523 µM.

And the GI50 (A549 NSCLC)?
Its GI50 is 0.441 µM.
